Literature values as cited in PMC8688301 (Environment international, 2021).

Settings: animal studies; ref Mörck et al., 2003; cited from earlier work

Brc1c(Br)c(Br)c(CCc2c(Br)c(Br)c(Br)c(Br)c2Br)c(Br)c1Br [DBDPE, decabromodiphenyl ethane]
absorbed fraction: 10%
